Test results as given in patent US10729810B2, “Methods, systems, and compositions for promoting bone growth” (Cayman Chemical Company, Inc., priority 2013, dated 2020).

Chains of the proteins cited; added tags and fusions are not shown. Lines headed by an entry give the natural chain unless they say otherwise; changes in a name come on top.
UniProt P43114: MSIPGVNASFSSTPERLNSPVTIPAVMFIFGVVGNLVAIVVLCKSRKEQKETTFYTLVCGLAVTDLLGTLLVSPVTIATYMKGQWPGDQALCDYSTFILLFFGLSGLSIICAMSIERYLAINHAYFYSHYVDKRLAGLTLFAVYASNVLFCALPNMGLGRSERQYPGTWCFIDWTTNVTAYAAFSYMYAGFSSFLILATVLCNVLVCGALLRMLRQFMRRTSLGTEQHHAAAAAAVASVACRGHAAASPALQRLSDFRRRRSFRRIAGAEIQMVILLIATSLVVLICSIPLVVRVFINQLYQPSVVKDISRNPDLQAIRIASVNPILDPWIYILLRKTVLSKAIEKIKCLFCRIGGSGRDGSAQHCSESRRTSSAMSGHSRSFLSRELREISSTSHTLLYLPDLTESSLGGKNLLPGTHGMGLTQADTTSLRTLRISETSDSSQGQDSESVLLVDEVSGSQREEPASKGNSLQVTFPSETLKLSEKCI
UniProt Q62928: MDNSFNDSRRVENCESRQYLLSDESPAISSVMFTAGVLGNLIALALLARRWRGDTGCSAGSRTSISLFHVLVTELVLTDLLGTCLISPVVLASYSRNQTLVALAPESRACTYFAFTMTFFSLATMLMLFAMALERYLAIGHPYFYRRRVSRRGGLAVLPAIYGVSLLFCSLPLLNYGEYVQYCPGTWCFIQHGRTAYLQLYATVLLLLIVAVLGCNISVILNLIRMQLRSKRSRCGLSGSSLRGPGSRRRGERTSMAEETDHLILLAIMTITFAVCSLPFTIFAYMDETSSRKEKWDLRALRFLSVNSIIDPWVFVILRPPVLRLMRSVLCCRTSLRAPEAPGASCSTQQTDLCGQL

biological target: T1, rat EP4 receptor (Rattus norvegicus, UniProt P43114); assay: cell-based; details: not given

EC50 [nM]	SMILES
> 1000	COC(=O)c1ccc(CCCN2C(=O)C(F)(F)C[C@@H]2/C=C/[C@H](O)[C@H](C)CCCc2ccccc2)s1 [Example 28F, methyl 5-(3-((R)-3,3-difluoro-5-((3R,4R,E)-3-hydroxy-4-methyl-7-phenylhept-1-en-1-yl)-2-oxopyrrolidin-1-yl)propyl)thiphene-2-carboxylate]

biological target: T1, rat EP4 receptor; assay: not given; details: not given

EC50 [nM]	SMILES
0.023 ± 0.019	C[C@@H](CCCc1ccccc1)[C@H](O)/C=C/[C@H]1CC(F)(F)C(=O)N1CCCCCCC(=O)O [Example 6D, 7-((R)-3,3-difluoro-5-((3S,4S,E)-3-hydroxy-4-methyl-7-phenylhept-1-en-1-yl)-2-oxopyrrolidin-1-yl)heptanoic acid]
0.016	C[C@H](CCCc1ccccc1)[C@H](O)/C=C/[C@H]1CC(F)(F)C(=O)N1CCCc1ccc(C(=O)O)s1 [Example 28G, 5-(3-((R)-3,3-difluoro-5-((3S,4R,E)-3-hydroxy-4-methyl-7-phenylhept-1-en-1-yl)-2-oxopyrrolidin-1-yl)propyl)thiphene-2-carboxylic acid]

biological target: rat EP2 receptor (Rattus norvegicus, UniProt Q62928); assay: STEP plate SEAP activity assay for EP2 agonist; assay type: cell-based; details: SEAP luminescence, 6-8 hours of stimulation

EC50 [nM]	SMILES
> 5000	O=C(O)CCCCCCN1C(=O)CC[C@@H]1/C=C/[C@H](O)CCC#Cc1ccccc1 [5D′, 7-((R)-2-((3R,E)-3-hydroxy-7-phenylhept-1-en-6-yn-1-yl)-5-oxopyrrolidin-1-yl)heptanoic acid]
> 1000	CCC#CC[C@H](C)[C@H](O)/C=C/[C@H]1CC(F)(F)C(=O)N1CCCCCCC(=O)O [Example 2C, 7-((R)-3,3-difluoro-5-((3S,4S,E)-3-hydroxy-4-methylnon-1-en-6-yn-1-yl)-2-oxopyrrolidin-1-yl)heptanoic acid]
> 1000	CCC#C[C@H](O)/C=C/[C@H]1CCC(=O)N1CCCCCCC(=O)O [6C′, 7-((R)-2-((R,E)-3-hydroxyhept-1-en-4-yn-1-yl)-5-oxopyrrolidin-1-yl)heptanoic acid]
> 1000	O=C(O)CCCCCCN1C(=O)CC[C@@H]1/C=C/[C@@H](O)C#Cc1ccccc1 [7C′, 7-((R)-2-((R,E)-3-hydroxy-5-phenylpent-1-en-4-yn-1-yl)-5-oxopyrrolidin-1-yl)heptanoic acid]
> 1000	CCC#CC[C@H](C)[C@H](O)/C=C/[C@H]1CCC(=O)N1CCc1ccc(C(=O)O)cc1 [9C′, 4-(2-((R)-2-((3S,4S,E)-3-hydroxy-4-methylnon-1-en-6-yn-1-yl)-5-oxopyrrolidin-1-yl)ethyl)benzoic acid]
> 1000	CCC#CC[C@H](C)[C@H](O)/C=C/[C@H]1CCC(=O)N1CCCCCCC(=O)O [2E′, 7-((R)-2-((3S,4S,E)-3-hydroxy-4-methylnon-1-en-6-yn-1-yl)-5-oxopyrrolidin-1-yl)heptanoic acid]
> 10000	C[C@@H](CCCCc1ccccc1)[C@@H](O)/C=C/[C@H]1CC(F)(F)C(=O)N1CCCc1ccc(C(=O)O)s1 [Example 38D, 5-(3-((R)-3,3-difluoro-5-((3R,4S,E)-3-hydroxy-4-methyl-8-phenyloct-1-en-1-yl)-2-oxopyrrolidin-1-yl)propyl)thiophene-2-carboxylic acid]
> 1000	CCC#C[C@@H](O)/C=C/[C@H]1CCC(=O)N1CCCCCCC(=O)O [6D′, 7-((R)-2-((S,E)-3-hydroxyhept-1-en-4-yn-1-yl)-5-oxopyrrolidin-1-yl)heptanoic acid]
> 1000	C[C@@H](CCCc1ccccc1)[C@H](O)/C=C/[C@H]1CC(F)(F)C(=O)N1CCCCCCC(=O)O [Example 6D, 7-((R)-3,3-difluoro-5-((3S,4S,E)-3-hydroxy-4-methyl-7-phenylhept-1-en-1-yl)-2-oxopyrrolidin-1-yl)heptanoic acid]
> 1000	O=C(O)CCCCCCN1C(=O)CC[C@@H]1/C=C/[C@@H](O)CCC#Cc1ccccc1 [5C′, 7-((R)-2-((3S,E)-3-hydroxy-7-phenylhept-1-en-6-yn-1-yl)-5-oxopyrrolidin-1-yl)heptanoic acid]
